{"sequences": {"note": "Protein sequences, listed by entry. Tags and fused reporters are not part of them.", "UniProt Q9UM07, whole entry, looked up": "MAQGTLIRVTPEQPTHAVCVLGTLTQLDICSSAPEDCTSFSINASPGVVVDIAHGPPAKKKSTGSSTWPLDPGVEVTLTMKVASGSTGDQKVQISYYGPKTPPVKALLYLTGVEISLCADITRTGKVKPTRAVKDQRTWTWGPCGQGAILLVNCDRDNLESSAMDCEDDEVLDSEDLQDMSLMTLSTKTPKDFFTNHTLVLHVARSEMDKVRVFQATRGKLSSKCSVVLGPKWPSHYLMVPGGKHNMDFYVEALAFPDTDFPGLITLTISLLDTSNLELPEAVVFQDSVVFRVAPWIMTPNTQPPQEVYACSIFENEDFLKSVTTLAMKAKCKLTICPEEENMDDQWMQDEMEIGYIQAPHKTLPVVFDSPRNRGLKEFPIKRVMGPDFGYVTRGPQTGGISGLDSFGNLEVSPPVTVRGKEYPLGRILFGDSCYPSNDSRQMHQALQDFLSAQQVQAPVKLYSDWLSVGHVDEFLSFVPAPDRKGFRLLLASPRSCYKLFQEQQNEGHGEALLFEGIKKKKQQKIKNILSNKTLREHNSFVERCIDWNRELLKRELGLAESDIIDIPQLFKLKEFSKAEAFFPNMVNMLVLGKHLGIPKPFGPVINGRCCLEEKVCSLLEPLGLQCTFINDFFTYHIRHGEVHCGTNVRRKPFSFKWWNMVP"}, "source": "PubChem BioAssay AID588490", "about": "(The Scripps Research Institute Molecular Screening Center, 2011)", "target": "Protein-arginine deiminase type-4 (Homo sapiens) (UniProt Q9UM07)", "test": "PubChem AID 588490", "conditions": "recombinant PAD1-4, BAEE citrulline colorimetric absorbance; PAD4"}
{"compound": "NC1=CC(=O)c2ccc(-c3cccc(C(=O)O)n3)nc2C1=O", "values": [{"measurement": "IC50", "result": 0.24, "unit": "µM"}]}
